Experimental data reported in US20210277003A1, “OGA INHIBITOR COMPOUNDS” (Janssen Pharmaceutica NV, priority 2018, published 2021).

Protein sequences, listed by entry. Tags and fused reporters are not part of them.
UniProt O60502, whole entry: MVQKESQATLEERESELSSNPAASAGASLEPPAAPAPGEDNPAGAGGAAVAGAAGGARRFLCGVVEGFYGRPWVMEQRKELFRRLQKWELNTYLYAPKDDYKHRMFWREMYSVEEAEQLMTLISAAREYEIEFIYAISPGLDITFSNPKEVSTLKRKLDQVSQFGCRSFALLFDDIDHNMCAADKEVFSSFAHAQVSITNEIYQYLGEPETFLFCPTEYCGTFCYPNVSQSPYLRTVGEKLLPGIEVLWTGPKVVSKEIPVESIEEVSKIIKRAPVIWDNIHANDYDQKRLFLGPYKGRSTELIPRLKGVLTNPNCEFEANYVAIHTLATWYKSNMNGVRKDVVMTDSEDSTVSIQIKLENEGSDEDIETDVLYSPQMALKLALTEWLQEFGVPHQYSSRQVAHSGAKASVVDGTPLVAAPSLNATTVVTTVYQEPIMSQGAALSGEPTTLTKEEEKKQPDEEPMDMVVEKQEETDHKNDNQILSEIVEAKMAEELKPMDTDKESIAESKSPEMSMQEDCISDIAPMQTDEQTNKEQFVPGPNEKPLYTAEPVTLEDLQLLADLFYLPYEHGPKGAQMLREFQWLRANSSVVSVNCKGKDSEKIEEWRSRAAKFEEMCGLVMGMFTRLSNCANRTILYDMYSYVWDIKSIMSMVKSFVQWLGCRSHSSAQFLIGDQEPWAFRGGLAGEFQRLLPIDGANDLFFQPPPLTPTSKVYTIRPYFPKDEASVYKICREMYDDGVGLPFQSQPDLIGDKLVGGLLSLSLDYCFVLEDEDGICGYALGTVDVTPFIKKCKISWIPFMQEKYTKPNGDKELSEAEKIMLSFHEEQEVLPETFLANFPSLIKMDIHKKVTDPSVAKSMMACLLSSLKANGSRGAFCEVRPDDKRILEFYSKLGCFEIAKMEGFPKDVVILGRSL

What was measured:
[1] = biological target: recombinant human Meningioma Expressed Antigen 5 (MGEA5), also referred to as O-GlcNAcase (OGA) (Homo sapiens, UniProt O60502); assay: OGA biochemical assay: inhibition of hydrolysis of fluorescein mono-ß-D-N-Acetyl-Glucosamine (FM-GlcNAc), fluorescence readout; details: FM-GlcNAc substrate
Excerpt: The assay is based on the inhibition of the hydrolysis of fluorescein mono-ß-D-N-Acetyl-Glucosamine (FM-GlcNAc) (Mariappa et al. 2015, Biochem J 470:255) by the recombinant human Meningioma Expressed Antigen 5 (MGEA5), also referred to as O-GlcNAcase (OGA). The hydrolysis FM-GlcNAc (Marker Gene technologies, cat #M1485) results in the formation of ß-D-N-glucosamineacetate and fluorescein. The fluorescence of the latter can be measured at excitation wavelength 485 nm and emission wavelength 538 nm. An increase in enzyme activity results in an increase in fluorescence signal. Full length OGA enzyme was purchased at OnGene (cat #TP322411). The enzyme was stored in 25 mM Tris.HCl, pH 7.3, 100 mM glycine, 10% glycerol at −20° C. Thiamet G and GlcNAcStatin were tested as reference compounds (Yuzwa et al. 2008 Nature Chemical Biology 4:483; Yuzwa et al. 2012 Nature Chemical Biology 8:393). The assay was performed in 200 mM Citrate/phosphate buffer supplemented with 0.005% Tween-20. 35.6 g Na2HPO4 2 H2O (Sigma, #C0759) were dissolved in 1 L water to obtain a 200 mM solution. 19.2 g citric acid (Merck, #1.06580) was dissolved in 1 L water to obtain a 100 mM solution. pH of the sodium phosphate solution was adjusted with the citric acid solution to 7.2. The buffer to stop the reaction consists of a 500 mM Carbonate buffer, pH 11.0. 734 mg FM-GlcNAc were dissolved in 5.48 mL DMSO to obtain a 250 mM solution and was stored at −20° C. OGA was used at a 2 nM concentration and FM-GlcNAc at a 100 uM final concentration. Dilutions were prepared in assay buffer. 50 nl of a compound dissolved in DMSO was dispensed on Black Proxiplate™ 384 Plus Assay plates (Perkin Elmer, #6008269) and 3 μl fl-OGA enzyme mix added subsequently. Plates were pre-incubated for 60 min at room temperature and then 2 μl FM-GlcNAc substrate mix added. […] Plates were briefly centrifuged for 1 min at 1000 rpm and incubate at room temperature for 6 h. To stop the reaction 5 μl STOP buffer were added and plates centrifuge again 1 min at 1000 rpm. Fluorescence was quantified in the Thermo Scientific Fluoroskan Ascent or the PerkinElmer EnVision with excitation wavelength 485 nm and emission wavelength 538 nm. For analysis a best-fit curve is fitted by a minimum sum of squares method. From this an IC50 value and Hill coefficient was obtained. High control (no inhibitor) and low control (saturating concentrations of standard inhibitor) were used to define the minimum and maximum values.

[2] = test system: OGA in HEK293 cells inducible for P301L mutant human Tau (isoform 2N4R); assay: OGA cellular assay: immunocytochemical detection of O-GlcNAcylated proteins (CTD110.6 antibody); details: 6 hours incubation; for Cellular Emax (%): maximum = Thiamet G 200 uM
Protocol: HEK293 cells inducible for P301L mutant human Tau (isoform 2N4R) were established at Janssen. Thiamet-G was used for both plate validation (high control) and as reference compound (reference EC50 assay validation). OGA inhibition is evaluated through the immunocytochemical (ICC) detection of O-GlcNAcylated proteins by the use of a monoclonal antibody (CTD110.6; Cell Signaling, #9875) detecting 0-GlcNAcylated residues as previously described (Dorfmueller et al. 2010 Chemistry & biology, 17:1250). Inhibition of OGA will result in an increase of O-GlcNAcylated protein levels resulting in an increased signal in the experiment. Cell nuclei are stained with Hoechst to give a cell culture quality control and a rough estimate of immediate compounds toxicity, if any. ICC pictures are imaged with a Perkin Elmer Opera Phenix plate microscope and quantified with the provided software Perkin Elmer Harmony 4.1.
Cells were propagated in DMEM high Glucose (Sigma, #D5796) following standard procedures. 2 days before the cell assay cells are split, counted and seeded in Poly-D-Lysine (PDL) coated 96-wells (Greiner, #655946) plate at a cell density of 12,000 cells per cm^2 (4,000 cells per well) in 100p of Assay Medium (Low Glucose medium is used to reduce basal levels of GlcNAcylation) (Park et al. 2014 The Journal of biological chemistry 289:13519). At the day of compound test medium from assay plates was removed and replenished with 90 µl of fresh Assay Medium. 10p of compounds at a 10 fold final concentration were added to the wells. Plates were centrifuged shortly before incubation in the cell incubator for 6 hours. DMSO concentration was set to 0.2%. Medium is discarded by applying vacuum. For staining of cells medium was removed and cells washed once with 100 μl D-PBS (Sigma, #D8537). From next step onwards unless other stated assay volume was always 50p and incubation was performed without agitation and at room temperature. Cells were fixed in 50 μl of a 4% paraformaldehyde (PFA, Alpha aesar, #043368) PBS solution for 15 minutes at room temperature. […] Before analysis samples were washed 2 times manually for 5 minutes in ICC base buffer.
Imaging is performed using Perkin Elmer Phenix Opera using a water 20× objective and recording 9 fields per well. Intensity readout at 488 nm is used as a measure of O-GlcNAcylation level of total proteins in wells. To assess potential toxicity of compounds nuclei were counted using the Hoechst staining. IC50-values are calculated using parametric non-linear regression model fitting. As a maximum inhibition Thiamet G at a 200 uM concentration is present on each plate. In addition, a concentration response of Thiamet G is calculated on each plate.

| SMILES | Enzymatic Emax (%) [1] | Enzymatic hOGA; pIC50 [1] | Enzymatic Emax (%) ([1]; tested form: HCl) | Enzymatic hOGA; pIC50 ([1]; tested form: HCl) | Cellular hOGA; pEC50 [2] | Cellular Emax (%) [2] | Cellular Emax (%) ([2]; tested form: HCl) | Cellular hOGA; pEC50 ([2]; tested form: HCl) |
| --- | --- | --- | --- | --- | --- | --- | --- | --- |
| Fc1cc(Cl)c(Nc2nccc3c2ccn3CC2CCO2)c(Cl)c1 (stereo not shown) | 103% | 8.71 |  |  | 7.67 | 87% |  |  |
| CCCCn1c(C)cc2c(Nc3c(C)ccnc3C)nccc21 | 102.49% | 7.2 |  |  | 6.41 | 72.4444% |  |  |
| CCCCn1ccc2c(Nc3ccc(C)c4c3cnn4C)nccc21 |  |  | 101.28% | 7.13 |  |  | 63.19% | 6.29 |
| CC(C)=C(F)Cn1ccc2c(Nc3c(C)ccnc3C)nccc21 |  |  | 99.545% | 7.13 |  |  | 73.6534% | 6.66 |
| FC(F)(Cn1ccc2c(Nc3c(Cl)cccc3Cl)nccc21)C1CC1 | 102% | 8.8 |  |  | 8.47 | 91% |  |  |
| Cc1ccnc(C)c1Nc1nccc2c1ccn2CC(C)(F)F | 101.115% | 8.5 |  |  | 7.52 | 97.3957% |  |  |
| CCCCn1ccc2c(Nc3c(Cl)cccc3Cl)ncc(C)c21 |  |  | 104% | 8.25 |  |  | 81% | 7.15 |
| Cc1ccnc(C(C)C)c1Nc1nccc2c1ccn2CCC1COC1 | 102% | 7.75 |  |  | 7.04 | 81% |  |  |
| Cc1cc(-c2cnn(C)c2)cc(C)c1Nc1nccc2c1ccn2CC1CC(F)(F)C1 | 99.265% | 7.99 |  |  | 7.56 | 95.2079% |  |  |

Second part, led by results:

| Enzymatic Emax (%) [1] | Enzymatic hOGA; pIC50 [1] | Enzymatic Emax (%) ([1]; tested form: HCl) | Enzymatic hOGA; pIC50 ([1]; tested form: HCl) | SMILES | Cellular hOGA; pEC50 [2] | Cellular Emax (%) [2] | Cellular Emax (%) ([2]; tested form: HCl) | Cellular hOGA; pEC50 ([2]; tested form: HCl) |
| --- | --- | --- | --- | --- | --- | --- | --- | --- |
| 103.365% | 7.67 |  |  | FC1(F)CC1CCn1ccc2c(Nc3c(Cl)cccc3Cl)nccc21 (single isomer, unassigned) [109a] | 6.35 | 70.01% |  |  |
| 102.725% | 7.51 |  |  | CCCC(C)n1ccc2c(Nc3c(Cl)cccc3Cl)nccc21 (single isomer, unassigned) [105a] | 6.07 | 49.32% |  |  |
|  | 7.4 |  |  | FC1(F)CC1CCn1ccc2c(Nc3c(Cl)cccc3Cl)nccc21 (single isomer, unassigned) [109b] | 6.21 | 62.63% |  |  |
| 97.73% | 6.49 |  |  | CCCC(C)n1ccc2c(Nc3c(Cl)cccc3Cl)nccc21 (single isomer, unassigned) [105b] |  |  |  |  |
